Experimental data published in patent US9714235B2, “Quinazoline derivatives, compositions thereof, and use as pharmaceuticals” (Shanghai Fochon Pharmaceutical Co., Ltd., priority 2013, dated 2017).

Columns and labels:
[1] = test system: N87 (EGFR and ErbB2 overexpression) cells; assay: Cell proliferation assay (MTS), N87; assay type: cell-based; conditions: 72 h incubation
Method: (§1) Cell Proliferation Asssay
(§2) Materials and Preparation of Reagents
(§3) MTS testing kit was purchased from Promega. […] Dimethyl sulfoxide (DMSO) was purchased from Sigma.
(§4) Inhibition Activity of Cell Proliferation
(§5) In this assay, inhibition of EGFR and ErbB2 was detected by the inhibition of BT474 and N87 cells proliferation. BT474 cells were cultured in culture flasks to 40-80% confluence in DMEM plus 10% fetal bovine serum. […] Cells were collected and plated onto 96-well plates at desired cell density (BT474: 1000 cells/well; N87: 1000 cells/well). BT474 plates were incubated 48 h at 37° C., with 5% CO2 to adhere. N87 plates were incubated overnight at 37° C., with 5% CO2 to adhere. […] Place BT474 plates at 37° C., with 5% CO2 for 7d. Place N87 plates at 37° C., with 5% CO2 for 72 h. After removing the medium, 20 μl MTS/100 μl medium mixture solution were added to each well and incubate the plates for exactly 2 hours. Measure absorbance at 490 nm and 650 nm (reference wavelength). IC50 was calculated using GraphPad Prism 5.0.

[2] = test system: BT474 (EGFR overexpression) cells; assay: Cell proliferation assay (MTS), BT474; assay type: cell-based; conditions: Homo sapiens, BT-474, 168 h, 7 d incubation
Method: as §1, §2, §3, §4, §5

IC50 [2] | Compound | IC50 [1]
 | CCOc1cc2ncnc(Nc3ccc(F)c(Cl)c3)c2cc1NC(=O)/C=C/CN1CC[C@@H]1COC [Example 4, (R,E)-N-(4-(3-chloro-4-fluorophenylamino)-7-ethoxyquinazolin-6-yl)-4-(2-(methoxymethyl)azetidin-1-yl)but-2-enamide] | 1.6 nM
7.8 nM | CCOc1cc2ncnc(Nc3ccc(F)c(Cl)c3)c2cc1NC(=O)/C=C/CN1CC[C@H]1COC [Example 5, (S,E)-N-(4-(3-chloro-4-fluorophenylamino)-7-ethoxyquinazolin-6-yl)-4-(2-(methoxymethyl)azetidin-1-yl)but-2-enamide] | 8.1 nM
 | COCCOc1cc2ncnc(Nc3ccc(F)c(Cl)c3)c2cc1NC(=O)/C=C/CN1CC[C@@H]1COC [Example 6, (R,E)-N-(4-(3-chloro-4-fluorophenylamino)-7-(2-methoxyethoxy)quinazolin-6-yl)-4-(2-(methoxymethyl)azetidin-1-yl)but-2-enamide] | 1.9 nM
 | COCCOc1cc2ncnc(Nc3ccc(F)c(Cl)c3)c2cc1NC(=O)/C=C/CN1CC[C@H]1COC [Example 7, (S,E)-N-(4-(3-chloro-4-fluorophenylamino)-7-(2-methoxyethoxy)quinazolin-6-yl)-4-(2-(methoxymethyl)azetidin-1-yl)but-2-enamide] | 4.6 nM
 | COC[C@H]1CCN1C/C=C/C(=O)Nc1cc2c(Nc3ccc(F)c(Cl)c3)ncnc2cc1OCC1CC1 [Example 9, (R,E)-N-(4-(3-chloro-4-fluorophenylamino)-7-(cyclopropylmethoxy)quinazolin-6-yl)-4-(2-(methoxymethyl)azetidin-1-yl)but-2-enamide] | 15.5 nM
 | COC[C@@H]1CCN1C/C=C/C(=O)Nc1cc2c(Nc3ccc(F)c(Cl)c3)ncnc2cc1OCC1CC1 [Example 10, (S,E)-N-(4-(3-chloro-4-fluorophenylamino)-7-(cyclopropylmethoxy)quinazolin-6-yl)-4-(2-(methoxymethyl)azetidin-1-yl)but-2-enamide] | 32.8 nM
 | COC[C@H]1CCN1C/C=C/C(=O)Nc1cc2c(Nc3ccc(F)c(Cl)c3)ncnc2cc1OC[C@H]1COCCO1 [Example 14, (E)-N-(7-(((R)-1,4-dioxan-2-yl)methoxy)-4-(3-chloro-4-fluorophenylamino)quinazolin-6-yl)-4-((R)-2-(methoxymethyl)azetidin-1-yl)but-2-enamide] | 1.2 nM
 | COC[C@@H]1CCN1C/C=C/C(=O)Nc1cc2c(Nc3ccc(F)c(Cl)c3)ncnc2cc1OC[C@H]1COCCO1 [Example 15, (E)-N-(7-(((R)-1,4-dioxan-2-yl)methoxy)-4-(3-chloro-4-fluorophenylamino)quinazolin-6-yl)-4-((S)-2-(methoxymethyl)azetidin-1-yl)but-2-enamide] | 11.2 nM
4.8 nM | COCC1CCN1C/C=C/C(=O)Nc1cc2c(Nc3ccc(F)c(Cl)c3)ncnc2cc1OC[C@@H]1COCCO1 (stereo partly drawn) [Example 17, (E)-N-(7-(((S)-1,4-dioxan-2-yl)methoxy)-4-(3-chloro-4-fluorophenylamino)quinazolin-6-yl)-4-(2-(methoxymethyl)azetidin-1-yl)but-2-enamide] | 5 nM
2.9 nM | COC[C@H]1CCN1C/C=C/C(=O)Nc1cc2c(Nc3ccc(F)c(Cl)c3)ncnc2cc1OC[C@H]1[C@@H]2COC[C@@H]21 [Example 19, (E)-N-(7-((1R,5S,6r)-3-oxabicyclo[3.1.0]hexan-6-ylmethoxy)-4-(3-chloro-4-fluorophenylamino)quinazolin-6-yl)-4-((R)-2-(methoxymethyl)azetidin-1-yl)but-2-enamide] | 2.8 nM
 | COC[C@@H]1CCN1C/C=C/C(=O)Nc1cc2c(Nc3ccc(F)c(Cl)c3)ncnc2cc1OC[C@H]1[C@@H]2COC[C@@H]21 [Example 20, (E)-N-(7-((1R,5S,6r)-3-oxabicyclo[3.1.0]hexan-6-ylmethoxy)-4-(3-chloro-4-fluorophenylamino)quinazolin-6-yl)-4-((S)-2-(methoxymethyl)azetidin-1-yl)but-2-enamide] | 15.6 nM
